Reference: PubChem BioAssay AID2314 (National Center for Advancing Translational Sciences (NCATS), 2010)
This is a selection; strong and weak results do not stand in their true shares. Some tests of the compounds listed are not included; inactive here does not mean inactive elsewhere. Active and inactive are the calls of the source. Cut-off read from the data, not from the text of the source: active = max response mostly above about 13% (no sharp cut-off); inactive = mostly below about 14%.

Test: Cycloheximide Counterscreen for Small Molecule Inhibitors of Shiga Toxin; note: read at 38.3 µM for the half of the compounds with a filed dose; 0% is about no effect
Details: cell reporter, cycloheximide protein synthesis inhibition counterscreen; hits give high values

Question: Which max response does the source give for `CC(C)N1C(=O)CC2(CCN(CCOC(=O)C(O)(c3ccccc3)c3ccccc3)CC2)C1=O` here?
Answer: Its max response is inactive: 0.643%.

Question: Which max response does the source give for `COc1cc(SC)ccc1C(=O)NCC1(N(C)C)CCCCC1` here?
Answer: Its max response is inactive: -2.28%.

Question: Which max response does the source give for `CCN(CC)CC(C)C(C)OC(=O)C(O)(c1ccccc1)c1ccccc1` (centres undefined) here?
Answer: The max response was inactive: 1.57%.

Question: With `Cc1ccc(C(=O)NCC2(N3CCCCC3)CCCCC2)cc1` as the compound, how does the max response read?
Answer: Its max response is inactive: -5.44%.

Question: Which max response does the source give for `O=C(NCC1(N2CCCCC2)CCCCC1)c1cc([N+](=O)[O-])ccc1Cl` here?
Answer: Its max response is inactive: -2%.

Question: Which max response does the source give for `CN1[C@@H]2CC[C@H]1CC(OC(=O)C(O)(c1ccccc1)c1ccccc1)C2` (some centres undefined) here?
Answer: The max response was inactive: -1.29%.

Question: For `O=C(NCC1(N2CCCCC2)CCCCC1)c1cc(F)c(F)cc1Cl`, which max response is on record?
Answer: The max response was inactive: -7.21%.

Question: With `C=CCN1CCN(CCOC(=O)C(O)(c2ccccc2)c2ccccc2)CC1` as the compound, how does the max response read?
Answer: Its max response is inactive: 4%.

Question: For `O=C(NCC1(N2CCCCC2)CCCCC1)c1cccc(Br)c1`, which max response is on record?
Answer: The max response was inactive: -5.92%.

Question: Which max response does the source give for `Cc1cc(C(=O)NCC2(N3CCCCC3)CCCCC2)ccc1[N+](=O)[O-]` here?
Answer: Its max response is inactive: -6.7%.

Question: For `CCN1CCCC(OC(=O)C2(O)c3ccccc3C=Cc3ccccc32)C1` (centres undefined), which max response is on record?
Answer: Its max response is inactive: -2.51%.

Question: For `COc1ccc(C(=O)NCC2(N(C)C)CCCCC2)cc1`, which max response is on record?
Answer: Its max response is inactive: 5.85%.

Question: Which max response does the source give for `CN(C)C1CCCC1OC(=O)C(O)(c1ccccc1)c1ccccc1` (centres undefined) here?
Answer: The max response was inactive: 3.88%.

Question: With `CN(C)c1ccc(C(=O)NCC2(N(C)C)CCCCC2)cc1` as the compound, how does the max response read?
Answer: The max response was inactive: 1.53%.

Question: With `Cc1ccccc1C(=O)NCC1(N2CCCCC2)CCCCC1` as the compound, how does the max response read?
Answer: Its max response is inactive: -2.4%.

Question: With `COc1ccc(Cl)cc1C(=O)NCC1(N(C)C)CCCCC1` as the compound, how does the max response read?
Answer: Its max response is inactive: 6.69%.

Question: For `COc1cccc(C(=O)NCC2(N3CCCCC3)CCCCC2)c1`, which max response is on record?
Answer: The max response was inactive: -1.77%.

Question: For `O=C(NCC1(N2CCCCC2)CCCCC1)c1cccc(Cl)c1`, which max response is on record?
Answer: Its max response is inactive: -2.24%.

Question: With `CN(C)C1(CNC(=O)c2ccc(Br)cc2)CCCCC1` as the compound, how does the max response read?
Answer: Its max response is inactive: 1.73%.

Question: Which max response does the source give for `COc1cc(C(=O)NCC2(N(C)C)CCCCC2)c([N+](=O)[O-])cc1OC` here?
Answer: Its max response is inactive: -4.21%.

Question: With `COc1ccc(Br)c(C(=O)NCC2(N3CCCCC3)CCCCC2)c1` as the compound, how does the max response read?
Answer: The max response was inactive: -0.864%.

Question: With `CN(C)c1cccc(C(=O)NCC2(N(C)C)CCCCC2)c1` as the compound, how does the max response read?
Answer: Its max response is inactive: -4.38%.

Question: With `CC(C)Oc1ccc(C(=O)NCC2(N(C)C)CCCCC2)cc1` as the compound, how does the max response read?
Answer: The max response was inactive: 10.2%.

Question: Which max response does the source give for `O=C(OC1CN2CCC1CC2)C(CO)(c1ccccc1)c1ccccc1` (centres undefined) here?
Answer: The max response was inactive: -2.54%.
